How the values were obtained:
Bradyrhizobium japonicum = test: Ratio of Kcat to Km for Bradyrhizobium japonicum beta-Lactamase BJP-1
[1] = tested on: Pectobacterium atrosepticum; test: Activity of Erwinia carotovora subsp. atroseptica DSM 30184 beta-lactamase CAR-1
[2] = tested on: Pectobacterium atrosepticum; test: Ratio of Kcat to Km for Erwinia carotovora subsp. atroseptica DSM 30184 beta-Lactamase CAR-1

SMILES | kcat/Km (Bradyrhizobium japonicum) | Km [1] [µM] | kcat [1] [s⁻¹] | kcat/Km [2] [×10² /M/s]
CC(C)(O/N=C(\C(=O)N[C@@H]1C(=O)N2C(C(=O)[O-])=C(C[n+]3ccccc3)CS[C@H]12)c1csc(N)n1)C(=O)O | 4.3 ×10³ /M/s | – | – | –
CC(=O)OCC1=C(C(=O)O)N2C(=O)[C@@H](NC(=O)Cc3cccs3)[C@H]2SC1 | 5.8 ×10⁵ /M/s | – | – | –
C[C@@H](O)[C@H]1C(=O)N2C(C(=O)O)=C(S[C@@H]3CN[C@H](C(=O)N(C)C)C3)[C@H](C)[C@H]12 | 8.3 ×10⁵ /M/s | > 990 | > 1 | 9.6

From ChEMBL document CHEMBL1275443, “Functional diversity among metallo-beta-lactamases: characterization of the CAR-1 enzyme of Erwinia carotovora” (2008)
